Drawing on ChEMBL document CHEMBL1146972, “Specific inhibitors of Plasmodium falciparum thioredoxin reductase as potential antimalarial agents” (Bioorg Med Chem Lett, 2006), this text covers inhibition for one molecule.

In this assay the target is T1, Glutathione reductase, mitochondrial (Homo sapiens) (UniProt P00390).
T1 sequence (whole entry): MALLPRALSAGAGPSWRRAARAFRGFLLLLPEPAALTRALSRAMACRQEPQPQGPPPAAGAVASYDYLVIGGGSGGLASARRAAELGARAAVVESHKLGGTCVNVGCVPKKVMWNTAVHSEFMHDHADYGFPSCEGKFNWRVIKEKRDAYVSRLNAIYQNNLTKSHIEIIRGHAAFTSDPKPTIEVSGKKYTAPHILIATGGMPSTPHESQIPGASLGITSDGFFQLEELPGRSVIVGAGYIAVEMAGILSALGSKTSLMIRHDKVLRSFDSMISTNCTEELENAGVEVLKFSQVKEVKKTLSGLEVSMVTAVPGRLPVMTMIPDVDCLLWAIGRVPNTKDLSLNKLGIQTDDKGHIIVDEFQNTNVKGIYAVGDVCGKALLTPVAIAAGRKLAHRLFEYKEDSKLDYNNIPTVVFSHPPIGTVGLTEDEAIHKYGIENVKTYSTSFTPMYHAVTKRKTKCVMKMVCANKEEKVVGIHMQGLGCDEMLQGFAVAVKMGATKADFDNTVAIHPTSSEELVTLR
Put plainly: Inhibition of human GR at 0.5 uM.

For `O=[N+]([O-])c1ccc(Sc2ccc([N+](=O)[O-])cc2[N+](=O)[O-])c([N+](=O)[O-])c1`, the inhibition (as a rule, the share of the control response that was lost under treatment) amounted to 18%.
